## Measured affinities in a library of Ab-14 heavy chain variants

All variants were tested on one target, the spike HR2 peptide PDVDLGDISGINAS (SARS-CoV-2).

Ab-14 is the parent antibody, in scFv form: VH, then a 15-residue (Gly4Ser)3 linker, then VL. The light chain is unchanged in all variants.
VH: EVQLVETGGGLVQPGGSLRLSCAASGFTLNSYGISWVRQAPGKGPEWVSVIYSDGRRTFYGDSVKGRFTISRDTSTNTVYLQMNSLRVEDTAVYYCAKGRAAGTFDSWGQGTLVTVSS
VL: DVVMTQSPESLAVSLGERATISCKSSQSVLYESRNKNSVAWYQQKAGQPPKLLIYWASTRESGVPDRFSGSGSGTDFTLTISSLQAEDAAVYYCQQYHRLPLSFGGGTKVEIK

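The starting antibody came from a phage panning campaign against this peptide. These sequences belong to a second round, designed from the earlier measurements on random variants of the parent. Their group label is 14H_Ctrl (Ctrl: baseline library sampled from a position-specific scoring matrix, with some repeated check sequences). The scFvs were displayed on barcoded MATa yeast, the peptide on MATalpha yeast. After mating in shaken culture at 30 °C for 16 h, diploids were selected and their barcode pairs sequenced. A regression on co-assayed BCL2-family reference pairs converts the normalised counts of each replicate to an apparent Kd. Mating was done six times.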

Substitutions are numbered in sequence along the VH above, starting at 1 (not Kabat).
Affinities are written as log10 Kd with Kd in nM; a lower number is a better binder.
Averages over replicates are reported, and they cover detected replicates only.
An entry "n.d." has no value in the source: the pair was not observed among the diploids in that replicate. This suggests poor binding but is not conclusive.
Of ten entries with the parent sequence, four were seen in most replicates (averages 0.34 to 2.37), three in one and three in none, so single entries are noisy.
As a blank, each scFv also met three strains without target: over all heavy chain designs, 1% of these pairings were detected, typically at 2.08 and seldom below 0.84. The control count says in how many pairings with the empty strains this scFv gave a signal, with their mean in brackets.
The range of this assay differs from that of the first round, and the authors advise against merging the two.
The authors averaged sequences with at least three values out of six and counted those with two or fewer as poor binders.

{"changes": "L29V/R100V/D106V", "log10 Kd (nM) by replicate": "n.d. / n.d. / n.d. / n.d. / n.d. / n.d.", "log10 Kd (nM), mean": "n.d.", "control signals": "0/18"}
{"changes": "R57L/F59Q/G61D/S63K", "log10 Kd (nM) by replicate": "n.d. / n.d. / n.d. / n.d. / n.d. / n.d.", "log10 Kd (nM), mean": "n.d.", "control signals": "0/18"}
{"changes": "R56F", "log10 Kd (nM) by replicate": "n.d. / n.d. / n.d. / n.d. / n.d. / 0.39", "log10 Kd (nM), mean": "0.39", "control signals": "0/18"}
{"changes": "T28N/S31L/T58E/R100N/T104F/F105S/D106H", "log10 Kd (nM) by replicate": "n.d. / n.d. / 1.75 / n.d. / n.d. / n.d.", "log10 Kd (nM), mean": "1.75", "control signals": "1/18 (0.87)"}
{"changes": "N30E/A102K", "log10 Kd (nM) by replicate": "n.d. / n.d. / n.d. / n.d. / n.d. / n.d.", "log10 Kd (nM), mean": "n.d.", "control signals": "0/18"}
{"changes": "R56M/G99A/D106L/S107A", "log10 Kd (nM) by replicate": "n.d. / n.d. / n.d. / n.d. / n.d. / n.d.", "log10 Kd (nM), mean": "n.d.", "control signals": "0/18"}
{"changes": "S31E/A102P", "log10 Kd (nM) by replicate": "0.80 / 0.67 / 0.46 / 0.41 / 0.44 / 0.89", "log10 Kd (nM), mean": "0.61", "control signals": "1/18 (2.90)"}
{"changes": "T28W/A101N", "log10 Kd (nM) by replicate": "n.d. / n.d. / n.d. / n.d. / n.d. / n.d.", "log10 Kd (nM), mean": "n.d.", "control signals": "0/18"}
{"changes": "T28N/R56F/G61Q/S63Q/R100E", "log10 Kd (nM) by replicate": "0.97 / 1.83 / n.d. / n.d. / 1.60 / 1.97", "log10 Kd (nM), mean": "1.59", "control signals": "0/18"}
{"changes": "G61S/G99D/A101N/A102H", "log10 Kd (nM) by replicate": "n.d. / n.d. / n.d. / n.d. / n.d. / n.d.", "log10 Kd (nM), mean": "n.d.", "control signals": "0/18"}
{"changes": "T28M/R100Y/A101C/A102Q", "log10 Kd (nM) by replicate": "n.d. / n.d. / n.d. / n.d. / n.d. / n.d.", "log10 Kd (nM), mean": "n.d.", "control signals": "0/18"}
{"changes": "L29I/G61K/S63N/K65R", "log10 Kd (nM) by replicate": "n.d. / n.d. / n.d. / n.d. / n.d. / n.d.", "log10 Kd (nM), mean": "n.d.", "control signals": "0/18"}
{"changes": "R56V/G99E/R100Y/D106V", "log10 Kd (nM) by replicate": "n.d. / n.d. / n.d. / n.d. / n.d. / n.d.", "log10 Kd (nM), mean": "n.d.", "control signals": "0/18"}
{"changes": "S31D/S53A/G61T/D106V", "log10 Kd (nM) by replicate": "n.d. / 1.89 / 2.27 / n.d. / 1.83 / n.d.", "log10 Kd (nM), mean": "2.00", "control signals": "1/18 (1.23)"}
{"changes": "S31D/F59A/G61T/A101Q", "log10 Kd (nM) by replicate": "0.53 / 0.05 / -0.22 / -0.03 / 0.08 / 0.31", "log10 Kd (nM), mean": "0.12", "control signals": "0/18"}
{"changes": "N30K/G103A/D106V", "log10 Kd (nM) by replicate": "n.d. / n.d. / n.d. / n.d. / n.d. / n.d.", "log10 Kd (nM), mean": "n.d.", "control signals": "0/18"}
{"changes": "S31D/T104L/S107T", "log10 Kd (nM) by replicate": "n.d. / n.d. / n.d. / n.d. / n.d. / n.d.", "log10 Kd (nM), mean": "n.d.", "control signals": "0/18"}
{"changes": "T28D/S53A/G103A", "log10 Kd (nM) by replicate": "1.74 / 1.28 / 0.73 / 1.37 / 1.69 / 2.03", "log10 Kd (nM), mean": "1.47", "control signals": "1/18 (1.24)"}
{"changes": "G26L/N30E/R100T/F105I", "log10 Kd (nM) by replicate": "n.d. / n.d. / n.d. / 1.29 / n.d. / n.d.", "log10 Kd (nM), mean": "1.29", "control signals": "0/18"}
{"changes": "L29R/R56Q/F59I/D106V", "log10 Kd (nM) by replicate": "n.d. / n.d. / n.d. / n.d. / n.d. / n.d.", "log10 Kd (nM), mean": "n.d.", "control signals": "0/18"}

Picked from the list: the 3 lowest averages where every replicate gave a value.

{"changes": "S31D/F59A/G61T/A101Q", "log10 Kd (nM) by replicate": "0.53 / 0.05 / -0.22 / -0.03 / 0.08 / 0.31", "log10 Kd (nM), mean": "0.12", "control signals": "0/18"}
{"changes": "S31E/A102P", "log10 Kd (nM) by replicate": "0.80 / 0.67 / 0.46 / 0.41 / 0.44 / 0.89", "log10 Kd (nM), mean": "0.61", "control signals": "1/18 (2.90)"}
{"changes": "T28D/S53A/G103A", "log10 Kd (nM) by replicate": "1.74 / 1.28 / 0.73 / 1.37 / 1.69 / 2.03", "log10 Kd (nM), mean": "1.47", "control signals": "1/18 (1.24)"}

Source: Li et al. 2023 (doi:10.1038/s41467-023-39022-2), MIT Lincoln Laboratory and A-Alpha Bio; data file from the FLAb repository.